Our source for the IC50, Selectivity FGFR1/2 and Selectivity FGFR1/3 values is US11286248B2, “Pyrazine-2(1H)-ketone compound acting as FGFR inhibitor” (ZHANGZHOU PIEN TZE HUANG PHARMACEUTICAL CO., LTD., priority 2018, dated 2022).

Sequences of proteins named here, by UniProt entry; tags and fusion partners are left off. Residues count along the entry.
UniProt P11362, 22-822 limits assumed: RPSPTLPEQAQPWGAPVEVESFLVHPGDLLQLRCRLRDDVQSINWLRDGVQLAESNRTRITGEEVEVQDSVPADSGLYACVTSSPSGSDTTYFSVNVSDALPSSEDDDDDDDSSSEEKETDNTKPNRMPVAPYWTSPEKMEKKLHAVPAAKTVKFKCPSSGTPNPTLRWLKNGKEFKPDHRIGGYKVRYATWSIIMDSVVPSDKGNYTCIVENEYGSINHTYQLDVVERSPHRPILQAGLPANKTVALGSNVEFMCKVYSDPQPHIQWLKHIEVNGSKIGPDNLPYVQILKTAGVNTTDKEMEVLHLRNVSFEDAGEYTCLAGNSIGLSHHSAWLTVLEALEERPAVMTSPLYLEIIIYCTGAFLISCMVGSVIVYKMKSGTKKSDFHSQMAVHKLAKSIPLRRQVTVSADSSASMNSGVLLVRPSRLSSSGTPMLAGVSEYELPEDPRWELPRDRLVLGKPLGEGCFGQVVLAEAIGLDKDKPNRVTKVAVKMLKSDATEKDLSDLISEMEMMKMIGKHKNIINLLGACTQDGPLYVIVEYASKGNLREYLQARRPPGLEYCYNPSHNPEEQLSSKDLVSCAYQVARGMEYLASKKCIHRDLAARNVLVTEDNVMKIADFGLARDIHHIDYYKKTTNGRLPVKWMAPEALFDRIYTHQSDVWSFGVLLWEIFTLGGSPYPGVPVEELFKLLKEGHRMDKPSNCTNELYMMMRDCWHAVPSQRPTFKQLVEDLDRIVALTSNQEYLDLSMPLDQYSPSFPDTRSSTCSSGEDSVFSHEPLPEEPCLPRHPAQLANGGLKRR
UniProt P21802, 22-821 limits assumed: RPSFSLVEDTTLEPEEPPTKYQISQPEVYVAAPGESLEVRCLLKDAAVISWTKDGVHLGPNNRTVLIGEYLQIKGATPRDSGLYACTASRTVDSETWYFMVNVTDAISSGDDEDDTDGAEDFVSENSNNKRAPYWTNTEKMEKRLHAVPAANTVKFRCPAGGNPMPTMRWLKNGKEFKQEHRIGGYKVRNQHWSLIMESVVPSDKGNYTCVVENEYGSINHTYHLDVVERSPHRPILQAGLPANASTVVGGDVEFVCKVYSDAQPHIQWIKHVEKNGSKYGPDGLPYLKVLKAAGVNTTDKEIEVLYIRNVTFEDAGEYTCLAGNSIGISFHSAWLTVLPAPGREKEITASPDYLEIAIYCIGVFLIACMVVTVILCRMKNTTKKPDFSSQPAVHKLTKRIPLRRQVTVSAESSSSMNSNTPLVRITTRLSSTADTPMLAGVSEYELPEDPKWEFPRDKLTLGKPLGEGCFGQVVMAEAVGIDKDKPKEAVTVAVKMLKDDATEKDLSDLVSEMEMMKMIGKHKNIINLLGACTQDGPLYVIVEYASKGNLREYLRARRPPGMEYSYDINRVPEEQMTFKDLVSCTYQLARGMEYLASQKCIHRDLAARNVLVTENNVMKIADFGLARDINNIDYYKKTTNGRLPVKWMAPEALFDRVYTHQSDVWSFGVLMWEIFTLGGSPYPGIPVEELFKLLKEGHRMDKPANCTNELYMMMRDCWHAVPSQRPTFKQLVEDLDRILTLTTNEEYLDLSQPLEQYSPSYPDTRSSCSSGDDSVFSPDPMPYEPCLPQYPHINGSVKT
UniProt P22607, 23-806 limits assumed: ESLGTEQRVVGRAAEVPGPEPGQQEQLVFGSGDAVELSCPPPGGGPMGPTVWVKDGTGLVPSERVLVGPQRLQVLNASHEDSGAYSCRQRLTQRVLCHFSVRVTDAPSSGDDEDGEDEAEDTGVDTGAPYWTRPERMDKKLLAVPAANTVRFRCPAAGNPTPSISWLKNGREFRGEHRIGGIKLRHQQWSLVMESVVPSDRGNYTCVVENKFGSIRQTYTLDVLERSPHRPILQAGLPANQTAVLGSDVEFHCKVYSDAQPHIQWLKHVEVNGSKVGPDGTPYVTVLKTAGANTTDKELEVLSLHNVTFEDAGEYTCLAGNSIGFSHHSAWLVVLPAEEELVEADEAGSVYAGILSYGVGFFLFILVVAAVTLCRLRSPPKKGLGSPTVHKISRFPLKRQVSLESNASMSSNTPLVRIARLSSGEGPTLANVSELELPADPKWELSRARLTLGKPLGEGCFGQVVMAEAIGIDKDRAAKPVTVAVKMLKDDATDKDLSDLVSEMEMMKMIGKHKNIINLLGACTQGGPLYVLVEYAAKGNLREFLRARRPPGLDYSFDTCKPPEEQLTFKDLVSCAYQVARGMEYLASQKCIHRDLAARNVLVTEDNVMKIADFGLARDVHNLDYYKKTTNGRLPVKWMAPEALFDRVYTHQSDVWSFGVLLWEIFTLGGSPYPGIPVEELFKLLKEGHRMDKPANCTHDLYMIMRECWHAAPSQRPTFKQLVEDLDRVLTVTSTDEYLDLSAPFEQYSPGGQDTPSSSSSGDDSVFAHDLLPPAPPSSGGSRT

What all share (type): biochemical
The target in assay [1] is human FGFR1 (Homo sapiens, UniProt P11362). Kind of assay: 33P isotope-labeled kinase activity test (Reaction Biology Corp), wild-type FGFR1. Particulars: read-out: IC50 (nM) FGFR1, 33P-ATP 5 μM, substrate pEY + Mn, 120 minutes at room temperature.
Assay [2] has as its target FGFR2 (Homo sapiens, UniProt P21802). Briefly: 33P isotope-labeled kinase activity test (Reaction Biology Corp), wild-type FGFR2.
Assay [3] deals with FGFR3 (Homo sapiens, UniProt P22607). Kind of assay: 33P isotope-labeled kinase activity test (Reaction Biology Corp), wild-type FGFR3.

For orientation: IC50 means the point on the concentration scale where inhibition reaches its midpoint. For the molecule `COc1cc(OC)cc(-c2nc(-c3nc(-c4cnn(CCN5CCOCC5)c4C)cnc3N)cn(C)c2=O)c1`, the IC50 in assay [1] was 226 nM; in assay [2] (read-out: IC50 (nM) FGFR2, wild-type kinase, 33P-ATP 5 μM, substrate pEY + Mn, 120 minutes at room temperature), 29.8 nM; in assay [3] (read-out: IC50 (nM) FGFR3, wild-type kinase, 33P-ATP 30 μM, substrate pEY + Mn, 120 minutes at room temperature), 17.4 nM. In assay [2] (ratio of IC50 FGFR1 to IC50 FGFR2), the Selectivity FGFR1/2 amounted to 7.59. The Selectivity FGFR1/3 in assay [3] (ratio of IC50 FGFR1 to IC50 FGFR3) was found to be 13.
